Laboratory results published in US12029736B2, “Camptothecin derivatives and conjugates thereof” (priority 2020, dated 2024).

Key:
NCI-N87 tumor cells = assay: In vivo efficacy of the ADCs in NCI-N87 CDX model; parameters: species or system mouse; conditions: single i.v.; for Regressions Complete / Regressions Partial: 8 mice per group
Description: Each mouse (female Balb/c-Nude from Vital Rivers) was inoculated subcutaneously at the right flank with NCI-N87 tumor cells (5×10^6) mixed with Matrigel (50:50) in 0.2 mL of PBS for tumor development. The animals were randomly grouped on day 6 after tumor inoculation, when the average tumor volume reached around 160 mm^3, then treatment started for the efficacy study. Each group contained 8 mice. The test and control articles were administered to the tumor-bearing mice via tail vein at a volume of 5 mL/kg.
Tumor size was measured twice a week in two dimensions using a caliper, and the volume was expressed in mm^3 using the formula: V=0.5 a×b^2 where a and b were the long and short dimensions of the tumor, respectively. Results were represented by mean and the standard error (Mean±SEM).
Statistical analysis: Two-way ANOVA was performed to compare tumor volume between two groups. All data were analyzed using Graphpad Prism 6.0 and P<0.05 was considered to be statistically significant. Both statistical analysis and biological observations were taken into consideration.
Tumor growth inhibition: The tumor size was used for calculations of T/C values. T/C (%) of relative tumor proliferation rate was calculated using the formula: T/C (%)=(Ti/T0)/(Vi/V0)×100%. […] Ti refer to the mean tumor volume of treatment group measured at each indicated time point following treatment; T0 refer to the tumor volume of treatment group when grouping; Vi refer to the mean tumor volume of vehicle control group measured at each indicated time point following treatment; V0 refer to the tumor volume of vehicle control group when grouping. If T/C>40%, there is no efficacy; if T/C=<40%, and p value<0.05, there is tumor inhibition.

JIMT-1 = assay: In vitro cytotoxicity assay (CCK-8), JIMT-1; type: cell-based, human; conditions: ADCs, moderate level of Her2 expression, 120 hours, read-out: Cell Lines (IC50, nM) JIMT-1
Description: (§1) In vitro cytotoxicity assay: • Cytotoxic potencies of the compounds are assessed in flat-bottomed 96-well cell culture plates (Corning Costar) using cell counting Kit-8 (CCK-8) assay (Shanghai Life Lab Biotech Co., Ltd.). Briefly, human tumor cells (2,000-10,000 cells/well, depending on the cell line), in the appropriate culture medium are incubated, with the compounds, or with conjugates in the presence or absence of an excess of the corresponding unconjugated antibodies, for 120 hours, at 37° C., 5% CO2.
(§2) Dispensed 175 μL cell suspension in 96-well plate at 1500 cells per well and incubate for 24 hours in a humidified incubator (37° C., 5% CO2). For antibody blocking, incubate cells (15000 cells/mL) with 2×10^−6 M of trastuzumab (final concentration 1 μM). Added 25 μL various concentrations of compound as a 5× solution into the cell culture medium (Fetal bovine serum, Invitrogen) in the plate and incubated for 120 hours in the incubator. Thawed CCK-8 on the bench top or in a 37° C. water bath, added 10 μL of CCK-8 to each well of the incubated plate (be careful not introducing air bubbles into the wells since they would interfere with the O. D. reading) and then further incubated for 1-4 hours in the incubator. Measured the absorbance at 450 nm using a SpectraMax i3× Microplate Reader and calculated the cell inhibition rate. […]

MDA-MB-468 = assay: In vitro cytotoxicity assay (CCK-8), MDA-MB-468; type: cell-based, human; conditions: ADCs, Her2 negative cell line, 120 hours, read-out: Cell Lines (IC50, nM) MDA-MB-468
Description: as §1, §2

JIMT-1 tumor cells = assay: In vivo efficacy of the ADCs in JIMT-1 CDX model; parameters: species or system mouse; conditions: single i.v.; for Regressions Complete / Regressions Partial: 8 mice per group

Substance: DS-8201a: the ADC trastuzumab deruxtecan (DS-8201a, Enhertu), evaluated for comparison
- Comments (NCI-N87 tumor cells; 0.25 mg/Kg): inactive
- Regressions Complete (NCI-N87 tumor cells; 0.25 mg/Kg): 0/8
- Regressions Partial (NCI-N87 tumor cells; 0.25 mg/Kg): 0/8
- TGI (%) (day 23) (NCI-N87 tumor cells; 0.25 mg/Kg): 24.7%
- Comments (NCI-N87 tumor cells; 1 mg/Kg): active
- Regressions Complete (NCI-N87 tumor cells; 1 mg/Kg): 0/8
- Regressions Partial (NCI-N87 tumor cells; 1 mg/Kg): 0/8
- TGI (%) (day 23) (NCI-N87 tumor cells; 1 mg/Kg): 52.2%
- Comments (NCI-N87 tumor cells; 4 mg/Kg): highly active
- Regressions Complete (NCI-N87 tumor cells; 4 mg/Kg): 0/8
- Regressions Partial (NCI-N87 tumor cells; 4 mg/Kg): 8/8
- TGI (%) (day 23) (NCI-N87 tumor cells; 4 mg/Kg): 97.3%
- IC50 (JIMT-1): 6500 nM
- IC50 (MDA-MB-468): > 1000 nM
- Comments (JIMT-1 tumor cells; 2.5 mg/Kg): active
- Regressions Complete (JIMT-1 tumor cells; 2.5 mg/Kg): 0/8
- TGI (%) (day 27) (JIMT-1 tumor cells; 2.5 mg/Kg): 66.3%
- Comments (JIMT-1 tumor cells; 5 mg/Kg): active
- Regressions Complete (JIMT-1 tumor cells; 5 mg/Kg): 0/8
- Regressions Partial (JIMT-1 tumor cells; 5 mg/Kg): 4/8
- TGI (%) (day 27) (JIMT-1 tumor cells; 5 mg/Kg): 78.4%
- Comments (JIMT-1 tumor cells; 10 mg/Kg): highly active
- Regressions Complete (JIMT-1 tumor cells; 10 mg/Kg): 0/8
- Regressions Partial (JIMT-1 tumor cells; 10 mg/Kg): 7/8
- TGI (%) (day 27) (JIMT-1 tumor cells; 10 mg/Kg): 87.5%

Substance: Trastuzumab
- Comments (NCI-N87 tumor cells; 4 mg/Kg): inactive
- Regressions Complete (NCI-N87 tumor cells; 4 mg/Kg): 0/8
- Regressions Partial (NCI-N87 tumor cells; 4 mg/Kg): 0/8
- TGI (%) (day 23) (NCI-N87 tumor cells; 4 mg/Kg): 16.8%
- Comments (JIMT-1 tumor cells; 10 mg/Kg): inactive
- Regressions Complete (JIMT-1 tumor cells; 10 mg/Kg): 0/8
- Regressions Partial (JIMT-1 tumor cells; 10 mg/Kg): 0/8
- TGI (%) (day 27) (JIMT-1 tumor cells; 10 mg/Kg): 22.5%
